ChEMBL document CHEMBL4043223, “Structure-activity relationship study of small molecule inhibitors of the DEPTOR-mTOR interaction” (Bioorg Med Chem Lett, 2017)

Sequences of proteins named here, by UniProt entry; tags and fusion partners are left off.
UniProt Q8TB45, whole entry: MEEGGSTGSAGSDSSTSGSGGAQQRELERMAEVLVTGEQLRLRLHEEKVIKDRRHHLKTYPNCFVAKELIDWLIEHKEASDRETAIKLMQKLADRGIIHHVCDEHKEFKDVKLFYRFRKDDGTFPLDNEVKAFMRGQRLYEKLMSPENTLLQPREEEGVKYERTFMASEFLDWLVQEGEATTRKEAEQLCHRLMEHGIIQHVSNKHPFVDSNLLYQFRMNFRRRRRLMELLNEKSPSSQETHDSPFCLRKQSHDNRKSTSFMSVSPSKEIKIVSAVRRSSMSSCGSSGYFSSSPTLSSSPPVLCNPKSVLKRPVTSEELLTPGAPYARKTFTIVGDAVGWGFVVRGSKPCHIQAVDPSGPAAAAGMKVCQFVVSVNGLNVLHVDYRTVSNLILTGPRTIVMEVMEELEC

Target: DEP domain-containing mTOR-interacting protein (Homo sapiens) (UniProt Q8TB45)
Assay: Inhibition of mTOR binding to DEPTOR in human RPMI8226 cells assessed as increase in mTORC1-associated p70 phosphorylation after 6 hrs by Western blot analysis relative to control
Assay type: cell-based

fold change (FC): 4
SMILES: FC(F)(F)c1cccc(NN=C2C(Cl)=C(Cl)C(Cl)=C2Cl)c1
